Reference: ChEMBL document CHEMBL1132136, “Ring constrained analogues of the orvinols: the furanomorphides” (1999)
The source made the active and inactive calls. The rule behind the calls is not given here.

Experiments:
Mus musculus = species: Mus musculus; test: Agonist activity was evaluated using mouse vas deferens assay in presence of delta-selective antagonist naltrindole (NTI); NR:Not reversed
Cavia porcellus = species: Cavia porcellus; test: Agonistic activity in electrically stimulated guinea pig ileum preparation (GPI) in presence of mu-selective antagonist CTAP; NR:Not reversed

Q: With `CO[C@@]12CC[C@@]3(C[C@@H]1[C@](C)(O)C(C)(C)C)[C@H]1Cc4ccc(O)c5c4[C@@]3(CCN1CC1CC1)[C@H]2O5` as the compound, how does the Ke (Mus musculus) read?
A: inactive

Q: And the Ke (Cavia porcellus)?
A: inactive

Q: How did the Ke (Mus musculus) turn out when `C[C@@H](NC(=O)[C@@H](N)Cc1ccc(O)cc1)C(=O)NCC(=O)N(C)[C@@H](Cc1ccccc1)C(=O)NCCO` was run?
A: Not reversed

Q: How did the Ke (Cavia porcellus) turn out when `CC1(C)OC23CCC4(CC2C1(C)C)C1Cc2ccc(O)c5c2C4(CCN1CC1CC1)C3O5` (centres undefined) was run?
A: inactive
